In US20260022143A1, “Cyclic Peptide Inhibitors of IL-23” (JANSSEN PHARMACEUTICA NV, priority 2022, published 2026):

Each molecule was assayed against T1, IL-23R (Homo sapiens, UniProt Q5VWK5) (assay: IL23R Reporter Assay). Settings: HEK293 cells containing IL-23R, IL-12RP1 and STAT-inducible firefly luciferase reporter; 10 ng/mL IL-23 (EC90); 5 h at 37° C.; read-out: IL23R Reporter Assay.
T1 construct: host or cells: HEK293
T1 sequence (Q5VWK5 24-629): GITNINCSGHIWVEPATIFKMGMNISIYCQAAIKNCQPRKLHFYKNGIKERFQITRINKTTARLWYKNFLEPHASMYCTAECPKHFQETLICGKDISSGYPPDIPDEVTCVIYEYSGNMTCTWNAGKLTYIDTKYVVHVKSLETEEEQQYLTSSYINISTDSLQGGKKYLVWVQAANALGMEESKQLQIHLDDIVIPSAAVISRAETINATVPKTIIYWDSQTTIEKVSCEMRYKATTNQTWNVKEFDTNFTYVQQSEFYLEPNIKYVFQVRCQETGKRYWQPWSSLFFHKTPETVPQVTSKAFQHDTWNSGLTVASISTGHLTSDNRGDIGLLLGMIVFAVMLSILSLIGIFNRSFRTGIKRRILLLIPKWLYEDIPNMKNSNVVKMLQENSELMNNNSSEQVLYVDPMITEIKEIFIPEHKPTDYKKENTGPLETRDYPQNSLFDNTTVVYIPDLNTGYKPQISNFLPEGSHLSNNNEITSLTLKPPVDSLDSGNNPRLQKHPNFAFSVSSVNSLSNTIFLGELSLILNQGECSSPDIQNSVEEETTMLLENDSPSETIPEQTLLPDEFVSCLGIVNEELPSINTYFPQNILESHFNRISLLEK
Format: cell-based
An IC50 of 3.9 nM was found for CC(=O)N(C)CCCC[C@@H]1NC(=O)[C@H](Cc2c[nH]c3c(C)cccc23)NC(=O)[C@H]([C@@H](C)O)NC(=O)[C@H](CC(=O)N(C)C)NC(=O)[C@@H](NC(=O)C(F)(F)F)C(C)(C)SSC(C)(C)[C@@H](C(=O)N[C@@H](Cc2ccc(OCCN(C)C)cc2)C(=O)N[C@@H](Cc2ccc3ccccc3c2)C(=O)NC2(C(=O)N[C@@H](CCC(=O)N(C)C)C(=O)N[C@@H](CC(N)=O)C(=O)N[C@@H](Cc3cccnc3)C(=O)N(C)CC(N)=O)CCOCC2)NC1=O [compound 79, CF3CO-Pen(3)-N(N(Me)2)-T-7MeW-K(NMeAc)-Pen(3)-AEF(N(Me)2)-2Nal-THP-Q(N(Me)2)-N-3Pya-Sar-CONH2] in this work.
An IC50 of 2.9 nM was found for CC(=O)NCCCC[C@@H]1NC(=O)[C@H](Cc2c[nH]c3c(C)cccc23)NC(=O)[C@H]([C@@H](C)O)NC(=O)[C@H](CC(N)=O)NC(=O)[C@@H](NC(=O)CCCCC[N+](C)(C)C)C(C)(C)SSC(C)(C)[C@@H](C(=O)N[C@@H](Cc2ccc(OCCN)cc2)C(=O)N[C@@H](Cc2ccc3ccccc3c2)C(=O)NC2(C(=O)N[C@@H](CCC(=O)O)C(=O)N[C@@H](CC(N)=O)C(=O)N[C@@H](Cc3cccnc3)C(=O)N(C)CC(N)=O)CCOCC2)NC1=O [compound 81] in this work.
An IC50 of 3.3 nM was found for CC(=O)NCCCC[C@@H]1NC(=O)[C@H](Cc2c[nH]c3c(C)cccc23)NC(=O)[C@H]([C@@H](C)O)NC(=O)[C@H](CC(N)=O)NC(=O)[C@@H](NC(=O)[C@@H](CCCCNC(=O)CCCCC[N+](C)(C)C)NC(C)=O)C(C)(C)SSC(C)(C)[C@@H](C(=O)N[C@@H](Cc2ccc(OCCN)cc2)C(=O)N[C@@H](Cc2ccc3ccccc3c2)C(=O)NC2(C(=O)N[C@@H](CCC(=O)O)C(=O)N[C@@H](CC(N)=O)C(=O)N[C@@H](Cc3cccnc3)C(=O)N(C)CC(N)=O)CCOCC2)NC1=O [compound 83] in this work.
An IC50 of 2.7 nM was found for CC(=O)NCCCC[C@@H]1NC(=O)[C@H](Cc2c[nH]c3c(C)cccc23)NC(=O)[C@H]([C@@H](C)O)NC(=O)[C@H](CC(N)=O)NC(=O)[C@@H](NC(=O)CCCCC[N+](C)(C)C)C(C)(C)SSC(C)(C)[C@@H](C(=O)N[C@@H](Cc2ccc(OCCN)cc2)C(=O)N[C@@H](Cc2ccc3ccccc3c2)C(=O)NC2(C(=O)N[C@@H](CCCCNC(C)=O)C(=O)N[C@@H](CC(N)=O)C(=O)N[C@@H](Cc3cccnc3)C(=O)N(C)CC(N)=O)CCOCC2)NC1=O [compound 89] in this work.
An IC50 of 2.8 nM was found for Cc1cccc2c(C[C@@H]3NC(=O)[C@H]([C@@H](C)O)NC(=O)[C@H](CC(=O)N(C)C)NC(=O)[C@@H](NC(=O)CCCCC[N+](C)(C)C)C(C)(C)SSC(C)(C)[C@@H](C(=O)N[C@@H](Cc4ccc(OCCN(C)C)cc4)C(=O)N[C@@H](Cc4ccc5ccccc5c4)C(=O)NC4(C(=O)N[C@@H](CCC(=O)N(C)C)C(=O)N[C@@H](CC(N)=O)C(=O)N[C@@H](Cc5cccnc5)C(=O)N(C)CC(=O)N(C)C)CCOCC4)NC(=O)[C@H](CCC(=O)N(C)C)NC3=O)c[nH]c12 [compound 91, 5cpaCO-Pen(3)-N(N(Me)2)-T-7MeW-Q(N(Me)2)-Pen(3)-AEF(N(Me)2)-2Nal-THP-Q(N(Me)2)-N-3Pya-Sar-CON(Me)2] in this work.
An IC50 of 3.6 nM was found for CC(=O)N(C)CCCC[C@@H]1NC(=O)[C@H](Cc2c[nH]c3c(C)cccc23)NC(=O)[C@H]([C@@H](C)O)NC(=O)[C@H](CC(=O)N(C)C)NC(=O)[C@@H](NC(=O)[C@H](CCCC[N+](C)(C)C)NC(=O)C(F)(F)F)C(C)(C)SSC(C)(C)[C@@H](C(=O)N[C@@H](Cc2ccc(OCCN(C)C)cc2)C(=O)N[C@@H](Cc2ccc3ccccc3c2)C(=O)NC2(C(=O)N[C@@H](CCC(=O)O)C(=O)N[C@@H](CC(N)=O)C(=O)N[C@@H](Cc3cccnc3)C(=O)N(C)CC(=O)N(C)C)CCOCC2)NC1=O [compound 93, CF3CO-K(Me)3-Pen(3)-N(N(Me)2)-T-7MeW-K(NMeAc)-Pen(3)-AEF(N(Me)2)-2Nal-THP-E-N-3Pya-Sar-CON(Me)2] in this work.
An IC50 of 3.9 nM was found for CC(=O)N(C)CCCC[C@@H]1NC(=O)[C@H](Cc2c[nH]c3c(C(F)(F)F)cccc23)NC(=O)[C@H]([C@@H](C)O)NC(=O)[C@H](CC(=O)N(C)C)NC(=O)[C@@H](NC(=O)C(F)(F)F)C(C)(C)SSC(C)(C)[C@@H](C(=O)N[C@@H](Cc2ccc(OCCN)cc2)C(=O)N[C@@H](Cc2ccc3ccccc3c2)C(=O)NC2(C(=O)N[C@@H](CCCCN(C)C(C)=O)C(=O)N[C@@H](CC(N)=O)C(=O)N[C@@H](Cc3cccnc3)C(=O)N(C)CC(=O)N(C)C)CCOCC2)NC1=O [compound 94, CF3CO-Pen(3)-N(N(Me)2)-T-7CF3W-K(NMeAc)-Pen(3)-AEF-2Nal-THP-K(NMeAc)-N-3Pya-Sar-CON(Me)2] in this work.
An IC50 of 4.8 nM was found for CC(=O)N(C)CCCC[C@@H]1NC(=O)[C@H](Cc2c[nH]c3c(C(F)(F)F)cccc23)NC(=O)[C@H]([C@@H](C)O)NC(=O)[C@H](CC(=O)N(C)C)NC(=O)[C@@H](NC(=O)C(F)(F)F)C(C)(C)SSC(C)(C)[C@@H](C(=O)N[C@@H](Cc2ccc(OCCN(C)C)cc2)C(=O)N[C@@H](Cc2ccc3ccccc3c2)C(=O)NC2(C(=O)N[C@@H](CCCCN(C)C(C)=O)C(=O)N[C@@H](CC(N)=O)C(=O)N[C@@H](Cc3cccnc3)C(=O)N(C)CC(=O)N(C)C)CCOCC2)NC1=O [compound 95, CF3CO-Pen(3)-N(N(Me)2)-T-7CF3W-K(NMeAc)-Pen(3)-AEF(N(Me)2)-2Nal-THP-K(NMeAc)-N-3Pya-Sar-CON(Me)2] in this work.
An IC50 of 3.9 nM was found for CC(=O)NCCCC[C@@H]1NC(=O)[C@H](Cc2c[nH]c3c(C)cccc23)NC(=O)[C@H]([C@@H](C)O)NC(=O)[C@H](CC(N)=O)NC(=O)[C@@H](NC(=O)CCCCC[N+](C)(C)C)C(C)(C)SSC(C)(C)[C@@H](C(=O)N[C@@H](Cc2ccc(OCCN)cc2)C(=O)N[C@@H](Cc2ccc3ccccc3c2)C(=O)NC2(C(=O)N[C@@H](CNC(C)=O)C(=O)N[C@@H](CC(N)=O)C(=O)N[C@@H](Cc3cccnc3)C(=O)N(C)CC(N)=O)CCOCC2)NC1=O [compound 99] in this work.
An IC50 of 1.7 nM was found for COCCOCCNC(=O)CN(C)C(=O)[C@H](Cc1cccnc1)NC(=O)[C@H](CC(N)=O)NC(=O)[C@H](CCC(=O)O)NC(=O)C1(NC(=O)[C@H](Cc2ccc3ccccc3c2)NC(=O)[C@H](Cc2ccc(OCCN)cc2)NC(=O)[C@H]2NC(=O)[C@H](CCCCNC(C)=O)NC(=O)[C@H](Cc3c[nH]c4c(C)cccc34)NC(=O)[C@H]([C@@H](C)O)NC(=O)[C@H](CC(N)=O)NC(=O)[C@@H](NC(C)=O)C(C)(C)SSC2(C)C)CCOCC1 [compound 116] in this work.
An IC50 of 2.2 nM was found for CC(=O)N[C@@H]1C(=O)N[C@@H](CC(=O)N(C)C)C(=O)N[C@@H]([C@@H](C)O)C(=O)N[C@@H](Cc2c[nH]c3c(C)cccc23)C(=O)N[C@@H](CCCC[N+](C)(C)C)C(=O)N[C@H](C(=O)N[C@@H](Cc2ccc(OCCN(C)C)cc2)C(=O)N[C@@H](Cc2ccc3ccccc3c2)C(=O)NC2(C(=O)N[C@@H](CCCC[N+](C)(C)C)C(=O)N[C@@H](CC(N)=O)C(=O)N[C@@H](Cc3cccnc3)C(=O)N(C)CC(=O)N(C)C)CCOCC2)C(C)(C)SSC1(C)C [compound 117, MeCO-Pen(3)-N(N(Me)2)-T-7MeW-K(Me)3-Pen(3)-AEF(N(Me)2)-2Nal-THP-K(Me)3-N-3Pya-Sar-CON(Me)2] in this work.
An IC50 of 2.3 nM was found for CC(=O)N[C@@H]1C(=O)N[C@@H](CC(=O)N(C)C)C(=O)N[C@@H]([C@@H](C)O)C(=O)N[C@@H](Cc2c[nH]c3c(C)cccc23)C(=O)N[C@@H](CCC(=O)N(C)C)C(=O)N[C@H](C(=O)N[C@@H](Cc2ccc(OCCN(C)C)cc2)C(=O)N[C@@H](Cc2ccc3ccccc3c2)C(=O)NC2(C(=O)N[C@@H](CCC(=O)O)C(=O)N[C@@H](CC(N)=O)C(=O)N[C@@H](Cc3cccnc3)C(=O)N(C)CC(=O)N(C)C)CCOCC2)C(C)(C)SSC1(C)C [compound 120, MeCO-Pen(3)-N(N(Me)2)-T-7MeW-Q(N(Me)2)-Pen(3)-AEF(N(Me)2)-2Nal-THP-E-N-3Pya-Sar-CON(Me)2] in this work.
